The data set concerns the target Human ACLY, His-tagged, bacterially expressed and purified recombinant full length protein (UniProt P53396).

The chains behind the UniProt entries cited, without tags or fusion partners. Where a name states a change or a piece, a line headed by the entry shows the natural chain unless it says otherwise.
UniProt P53396: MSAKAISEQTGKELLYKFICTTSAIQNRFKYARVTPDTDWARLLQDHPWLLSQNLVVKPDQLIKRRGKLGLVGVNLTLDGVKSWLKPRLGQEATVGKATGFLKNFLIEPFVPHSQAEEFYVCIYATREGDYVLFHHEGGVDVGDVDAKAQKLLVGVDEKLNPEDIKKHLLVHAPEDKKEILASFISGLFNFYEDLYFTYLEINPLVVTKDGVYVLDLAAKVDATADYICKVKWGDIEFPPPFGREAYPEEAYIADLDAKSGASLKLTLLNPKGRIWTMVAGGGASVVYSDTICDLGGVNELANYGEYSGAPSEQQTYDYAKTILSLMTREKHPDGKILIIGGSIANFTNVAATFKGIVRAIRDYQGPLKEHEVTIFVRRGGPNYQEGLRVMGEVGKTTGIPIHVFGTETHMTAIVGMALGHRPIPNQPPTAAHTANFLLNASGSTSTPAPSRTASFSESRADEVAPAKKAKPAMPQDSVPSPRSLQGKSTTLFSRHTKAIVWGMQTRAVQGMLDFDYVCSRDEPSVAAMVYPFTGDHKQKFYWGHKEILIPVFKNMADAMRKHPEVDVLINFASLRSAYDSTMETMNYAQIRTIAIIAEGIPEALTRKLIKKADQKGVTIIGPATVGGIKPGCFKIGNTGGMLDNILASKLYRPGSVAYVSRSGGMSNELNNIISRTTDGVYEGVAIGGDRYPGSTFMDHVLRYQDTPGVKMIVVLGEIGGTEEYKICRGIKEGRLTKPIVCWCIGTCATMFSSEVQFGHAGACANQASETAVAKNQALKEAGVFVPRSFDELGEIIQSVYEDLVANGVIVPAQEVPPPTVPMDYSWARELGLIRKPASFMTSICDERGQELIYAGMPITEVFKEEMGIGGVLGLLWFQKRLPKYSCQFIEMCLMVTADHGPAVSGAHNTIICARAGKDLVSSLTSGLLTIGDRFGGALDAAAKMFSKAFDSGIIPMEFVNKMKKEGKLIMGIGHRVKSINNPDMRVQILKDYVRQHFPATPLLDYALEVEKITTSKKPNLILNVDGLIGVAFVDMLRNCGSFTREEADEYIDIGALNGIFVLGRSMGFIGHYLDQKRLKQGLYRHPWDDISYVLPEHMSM

Consider Active recombinant Src kinase, for which the number of ACLY tyrosine residues phosphorylated (in vitro kinase assay, phosphoproteomics) (tyrosine residues) came out at 4.

Values taken from US20220218659.
